Amino acid sequences for entries named in this document (tags omitted).
UniProt Q60492, whole entry: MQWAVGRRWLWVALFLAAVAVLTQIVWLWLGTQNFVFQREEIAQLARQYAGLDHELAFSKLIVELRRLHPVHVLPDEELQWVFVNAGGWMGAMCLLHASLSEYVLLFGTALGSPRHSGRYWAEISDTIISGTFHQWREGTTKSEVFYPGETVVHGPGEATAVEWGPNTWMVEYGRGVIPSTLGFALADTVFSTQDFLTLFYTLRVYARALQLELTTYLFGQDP

According to ChEMBL document CHEMBL1141702 (Bioorg Med Chem Lett, 2008):

Experiments:
Rattus norvegicus [1] = species: Rattus norvegicus; assay: Selectivity ratio of Ki for rat brain stem SERT to Ki for rat striatum DAT; format: tissue-based
Rattus norvegicus [2] = species: Rattus norvegicus; assay: Selectivity ratio of Ki for rat brain stem SERT to Ki for rat frontal cortex NET; format: tissue-based
[3] = Selectivity ratio of Ki for rat brain stem SERT to Ki for guinea pig brain sigma 1 receptor
[4] = molecular target: Sigma non-opioid intracellular receptor 1 (Cavia porcellus, UniProt Q60492); assay: Displacement of [3H](+)-pentazocine from sigma 1 receptor in guinea pig brain membrane; format: cell membranes
In short: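 Tissue was previously frozen guinea pig brain minus cerebellum, incubated 120 min at 25 °C. Ki values derived from competition binding.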

SMILES | Ratio Ki (Rattus norvegicus [1]) | Ratio Ki (Rattus norvegicus [2]) | Ratio Ki [3] | Ki [4] [nM]
O[C@H](Cc1ccccc1)CN1CCN(CCCN(c2ccc(F)cc2)c2ccc(F)cc2)CC1 | 97 | 393 | 6 | –
C=CC(=O)O[C@@H](Cc1ccccc1)CN1CCN(CCCN(c2ccc(F)cc2)c2ccc(F)cc2)CC1 | 202 | 248 | 14 | –
OC(CCN1CCN(CCCN(c2ccc(F)cc2)c2ccc(F)cc2)CC1)c1ccccc1 (racemic) | – | – | – | 45
O[C@@H](Cc1ccccc1)CN1CCN(CCCN(c2ccc(F)cc2)c2ccc(F)cc2)CC1 | 453 | 445 | 16 | –
CC(=O)OC(CCN1CCN(CCCN(c2ccc(F)cc2)c2ccc(F)cc2)CC1)c1ccccc1 (centres undefined) | 48 | 231 | 13 | –
O=C(CCCc1ccccc1)OC(CCN1CCN(CCCN(c2ccc(F)cc2)c2ccc(F)cc2)CC1)c1ccccc1 (centres undefined) | 43 | 248 | 5 | –
C=CC(=O)OC(CCN1CCN(CCCN(c2ccc(F)cc2)c2ccc(F)cc2)CC1)c1ccccc1 (centres undefined) | 47 | 291 | 13 | –
